Experimental data from PubChem BioAssay (NCI).
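96-well plates; 48 h exposure; 5 concentrations. Endpoints by linear interpolation between flanking doses. Not reached: highest tested concentration assigned. GI50 = concentration required for 50% inhibition of growth. The concentration for full growth arrest is given as TGI.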

Experiments:
Assay in all cases: growth of human tumour cells (NCI), 48 h
OVCAR-4 ovarian = tested on: OVCAR-4 ovarian
SF-539 CNS = tested on: SF-539 CNS
SNB-19 CNS = tested on: SNB-19 CNS
HCT-116 colon = tested on: HCT-116 colon
PC-3 prostate = tested on: PC-3 prostate
NCI-H23 lung = tested on: NCI-H23 lung
HCT-15 colon = tested on: HCT-15 colon
HT29 colon = tested on: HT29 colon
HCC-2998 colon = tested on: HCC-2998 colon
UACC-62 melanoma = tested on: UACC-62 melanoma
CCRF-CEM leukemia = tested on: CCRF-CEM leukemia
CAKI-1 renal = tested on: CAKI-1 renal
MALME-3M melanoma = tested on: MALME-3M melanoma
HL-60(TB) leukemia = tested on: HL-60(TB) leukemia
IGROV1 ovarian = tested on: IGROV1 ovarian
NCI-H226 lung = tested on: NCI-H226 lung
MDA-MB-435 = tested on: MDA-MB-435
MCF7 breast = tested on: MCF7 breast
T-47D breast = tested on: T-47D breast
MDA-N = tested on: MDA-N
HOP-92 NSCLC = tested on: HOP-92 NSCLC
A549 NSCLC = tested on: A549 NSCLC
RXF 393 renal = tested on: RXF 393 renal
NCI-H460 lung = tested on: NCI-H460 lung
SW-620 colon = tested on: SW-620 colon
SR leukemia = tested on: SR leukemia
EKVX NSCLC = tested on: EKVX NSCLC
UO-31 renal = tested on: UO-31 renal
SK-MEL-28 melanoma = tested on: SK-MEL-28 melanoma
OVCAR-5 ovarian = tested on: OVCAR-5 ovarian
LOX IMVI melanoma = tested on: LOX IMVI melanoma
RPMI-8226 leukemia = tested on: RPMI-8226 leukemia
UACC-257 melanoma = tested on: UACC-257 melanoma
786-0 renal = tested on: 786-0 renal
SNB-75 CNS = tested on: SNB-75 CNS
NCI-H522 lung = tested on: NCI-H522 lung
HS 578T breast = tested on: HS 578T breast
SK-MEL-2 melanoma = tested on: SK-MEL-2 melanoma
SK-MEL-5 melanoma = tested on: SK-MEL-5 melanoma
A498 renal = tested on: A498 renal
M14 melanoma = tested on: M14 melanoma
SK-OV-3 ovarian = tested on: SK-OV-3 ovarian
COLO 205 colon = tested on: COLO 205 colon
KM12 colon = tested on: KM12 colon
BT-549 breast = tested on: BT-549 breast
OVCAR-3 ovarian = tested on: OVCAR-3 ovarian
NCI-H322M lung = tested on: NCI-H322M lung
SF-295 CNS = tested on: SF-295 CNS
SN12C renal = tested on: SN12C renal
DU-145 prostate = tested on: DU-145 prostate
NCI/ADR-RES ovarian = tested on: NCI/ADR-RES ovarian
HOP-62 NSCLC = tested on: HOP-62 NSCLC
ACHN renal = tested on: ACHN renal
U251 CNS = tested on: U251 CNS
SF-268 CNS = tested on: SF-268 CNS
OVCAR-8 ovarian = tested on: OVCAR-8 ovarian
TK-10 renal = tested on: TK-10 renal
K-562 leukemia = tested on: K-562 leukemia
MDA-MB-231 breast = tested on: MDA-MB-231 breast

Work on `N#Cc1cc([N+](=O)[O-])cc([N+](=O)[O-])c1N` yielded a GI50 (OVCAR-4 ovarian) of 17.4 µM, a TGI (OVCAR-4 ovarian) of 36.8 µM and a GI50 (SF-539 CNS) of 14.1 µM. It also gave a TGI (SF-539 CNS) of 36.4 µM, a GI50 (SNB-19 CNS) greater than 100 µM and a TGI (SNB-19 CNS) greater than 100 µM. For the same compound, the GI50 (HCT-116 colon) was 45.4 µM, the TGI (HCT-116 colon) was greater than 100 µM and the GI50 (PC-3 prostate) was 44.3 µM. The TGI (PC-3 prostate) was greater than 100 µM, the GI50 (NCI-H23 lung) was 81.5 µM and the TGI (NCI-H23 lung) was greater than 100 µM. It also gave a GI50 (HCT-15 colon) greater than 100 µM, a TGI (HCT-15 colon) greater than 100 µM and a GI50 (HT29 colon) greater than 100 µM. The TGI (HT29 colon) was greater than 100 µM, the GI50 (HCC-2998 colon) was greater than 100 µM and the TGI (HCC-2998 colon) was greater than 100 µM. The GI50 (UACC-62 melanoma) was 17.2 µM, the TGI (UACC-62 melanoma) was 34.6 µM and the GI50 (CCRF-CEM leukemia) was 25.3 µM. It also gave a TGI (CCRF-CEM leukemia) greater than 100 µM, a GI50 (CAKI-1 renal) of 14.5 µM and a TGI (CAKI-1 renal) of 34.4 µM. It also gave a GI50 (MALME-3M melanoma) of 11.3 µM, a TGI (MALME-3M melanoma) of 27.6 µM and a GI50 (HL-60(TB) leukemia) greater than 100 µM. It also gave a TGI (HL-60(TB) leukemia) greater than 100 µM, a GI50 (IGROV1 ovarian) of 19 µM and a TGI (IGROV1 ovarian) of 36.4 µM. It also gave a GI50 (NCI-H226 lung) of 76.7 µM, a TGI (NCI-H226 lung) greater than 100 µM and a GI50 (MDA-MB-435) of 12.8 µM. The TGI (MDA-MB-435) was 36.9 µM, the GI50 (MCF7 breast) was 31.2 µM and the TGI (MCF7 breast) was greater than 100 µM. For the same compound, the GI50 (T-47D breast) was 4.22 µM, the TGI (T-47D breast) was 18.8 µM and the GI50 (MDA-N) was 16.5 µM. The TGI (MDA-N) was 36.2 µM, the GI50 (HOP-92 NSCLC) was 30.1 µM and the TGI (HOP-92 NSCLC) was 93.3 µM. For the same compound, the GI50 (A549 NSCLC) was 59.6 µM, the TGI (A549 NSCLC) was greater than 100 µM and the GI50 (RXF 393 renal) was 18.6 µM. For the same compound, the TGI (RXF 393 renal) was 37.5 µM, the GI50 (NCI-H460 lung) was 3.73 µM and the TGI (NCI-H460 lung) was greater than 100 µM. The GI50 (SW-620 colon) was 31.3 µM, the TGI (SW-620 colon) was greater than 100 µM and the GI50 (SR leukemia) was 14.4 µM. The TGI (SR leukemia) was greater than 100 µM, the GI50 (EKVX NSCLC) was 32.1 µM and the TGI (EKVX NSCLC) was 88.5 µM. For the same compound, the GI50 (UO-31 renal) was greater than 100 µM, the TGI (UO-31 renal) was greater than 100 µM and the GI50 (SK-MEL-28 melanoma) was greater than 100 µM. The TGI (SK-MEL-28 melanoma) was greater than 100 µM, the GI50 (OVCAR-5 ovarian) was 95 µM and the TGI (OVCAR-5 ovarian) was greater than 100 µM. The GI50 (LOX IMVI melanoma) was greater than 100 µM, the TGI (LOX IMVI melanoma) was greater than 100 µM and the GI50 (RPMI-8226 leukemia) was 14.6 µM. It also gave a TGI (RPMI-8226 leukemia) greater than 100 µM, a GI50 (UACC-257 melanoma) of 70.8 µM and a TGI (UACC-257 melanoma) greater than 100 µM. For the same compound, the GI50 (786-0 renal) was 17 µM, the TGI (786-0 renal) was 33.6 µM and the GI50 (SNB-75 CNS) was 26.9 µM. For the same compound, the TGI (SNB-75 CNS) was 76.5 µM, the GI50 (NCI-H522 lung) was 2.63 µM and the TGI (NCI-H522 lung) was 13 µM. It also gave a GI50 (HS 578T breast) of 49.6 µM, a TGI (HS 578T breast) greater than 100 µM and a GI50 (SK-MEL-2 melanoma) of 29 µM. It also gave a TGI (SK-MEL-2 melanoma) of 71.8 µM, a GI50 (SK-MEL-5 melanoma) of 2.9 µM and a TGI (SK-MEL-5 melanoma) of 15 µM. The GI50 (A498 renal) was greater than 100 µM, the TGI (A498 renal) was greater than 100 µM and the GI50 (M14 melanoma) was 51.1 µM. It also gave a TGI (M14 melanoma) greater than 100 µM, a GI50 (SK-OV-3 ovarian) greater than 100 µM and a TGI (SK-OV-3 ovarian) greater than 100 µM. The GI50 (COLO 205 colon) was greater than 100 µM, the TGI (COLO 205 colon) was greater than 100 µM and the GI50 (KM12 colon) was 18.7 µM. For the same compound, the TGI (KM12 colon) was 39.8 µM, the GI50 (BT-549 breast) was 1.67 µM and the TGI (BT-549 breast) was 3.37 µM. It also gave a GI50 (OVCAR-3 ovarian) of 16 µM, a TGI (OVCAR-3 ovarian) of 30.3 µM and a GI50 (NCI-H322M lung) of 74.1 µM. The TGI (NCI-H322M lung) was greater than 100 µM, the GI50 (SF-295 CNS) was greater than 100 µM and the TGI (SF-295 CNS) was greater than 100 µM. It also gave a GI50 (SN12C renal) greater than 100 µM, a TGI (SN12C renal) greater than 100 µM and a GI50 (DU-145 prostate) of 19.2 µM. The TGI (DU-145 prostate) was 37.5 µM, the GI50 (NCI/ADR-RES ovarian) was greater than 100 µM and the TGI (NCI/ADR-RES ovarian) was greater than 100 µM. It also gave a GI50 (HOP-62 NSCLC) greater than 100 µM, a TGI (HOP-62 NSCLC) greater than 100 µM and a GI50 (ACHN renal) greater than 100 µM. For the same compound, the TGI (ACHN renal) was greater than 100 µM, the GI50 (U251 CNS) was 39.9 µM and the TGI (U251 CNS) was greater than 100 µM. It also gave a GI50 (SF-268 CNS) of 22.9 µM, a TGI (SF-268 CNS) of 62.5 µM and a GI50 (OVCAR-8 ovarian) greater than 100 µM. It also gave a TGI (OVCAR-8 ovarian) greater than 100 µM, a GI50 (TK-10 renal) greater than 100 µM and a TGI (TK-10 renal) greater than 100 µM. The GI50 (K-562 leukemia) was 29.5 µM, the TGI (K-562 leukemia) was 89 µM and the GI50 (MDA-MB-231 breast) was greater than 100 µM. It also gave a TGI (MDA-MB-231 breast) greater than 100 µM.
